Source: patent publication US11351221B2, “SMAC mimetic” (Medivir AB, priority 2009, dated 2022)
Read-outs that look alike come from different tables or passages of the source.

Key:
[1] = type: in vivo; conditions: rat; for Clinical signs: iv
Description: Body weight loss (BWL), mortality and additional toxicity data were generated substantially as follows. Sprague-Dawley rats were dosed daily (QD×4, i.v. bolus slow push) with Compounds 15, 4 and 5. Body weights were taken on day 4 and are shown as percent change from day 1. Compounds 4 and 5 were administered at 0.3 mg/Kg, 1 mg/Kg, or 3 mg/Kg; Compound 15 was administered at 1, 5, or 10 mg/Kg.

[2] = system: MDA-MB-231 human breast tumor cells; assay: MDA-MB-231 xenograft tumor growth delay; type: in vivo, female nude mice; conditions: 20 mg/Kg i.p., q3dx5
Description: MDA-MB-231 xenograft data were generated substantially as follows. MDA-MB-231 human breast tumor cells were injected into the mammary fat pad of female nude mice and dosing initiated twelve days later at an average tumor volume of approximately 148 mm^3. No tumor burden was associated with this model based on lack of weight loss or animal morbidity in control groups. Mice were injected subcutaneously into the mammary fat pad with 1×10^7 cells suspended in 200 μl of a 1:1 HBSS: Matrigel solution; injected cells were within nine passages of the original lot. Pre-study tumor volumes were recorded beginning approximately one week prior to the estimated start date. […]
Beginning on Day 0, animals were observed daily and weighed twice weekly using a digital scale (Ohaus SP601); data including individual and mean gram weights (Mean We±SD), mean percent weight change versus Day 0 (% vD0) and mean percent weight change versus prior measurement (% vD−x) were recorded for each group and plotted at study completion.
Beginning on Day 0, tumor dimensions were measured twice weekly by digital caliper (Fowler Ultra-Cal IV) and data including individual and mean estimated tumor volumes (Mean TV±SEM) recorded for each group; tumor volume was calculated using the formula: TV=width^2×length×0.52. […]

Question: With CC[C@H](NC(=O)[C@H](C)NC)C(=O)N1C[C@@H](O)C[C@H]1Cc1c(-c2[nH]c3cc(F)ccc3c2C[C@@H]2C[C@H](O)CN2C(=O)[C@H](CC)NC(=O)[C@H](C)NC)[nH]c2cc(F)ccc12 [Compound 15, N-{1S-[2R-(6,6′-Difluoro-3′-{4S-hydroxy-1-[2S-(2S-methylamino-propionylamino)-butyryl]-pyrrolidin-2R-ylmethyl}-1H,1′H-[2,2′]biindolyl-3-ylmethyl)-4S-hydroxy-pyrrolidine-1-carbonyl]-propyl}-2S-methylamino-propionamide] as the compound, how does the Mortality ([1]; 10 mg/Kg, QDx4 i.v. bolus) read?
Answer: mortality was observed

Question: What about the “Bone marrow hypocellularity of the erythroid series (anatomic pathology)” value ([1]; in vivo, 1 mg/kg/day) of the same compound?
Answer: minimal to mild

Question: What about the “Hypercellularity of the myeloid series (anatomic pathology)” value ([1]; in vivo, 1 mg/kg/day) of the same compound?
Answer: minimal to mild

Question: What about the “Type 2 pneumocyte hypertrophy/hyperplasia in the lungs (anatomic pathology)” value ([1]; in vivo, 1 mg/kg/day) of the same compound?
Answer: minimal

Question: What about the Clinical signs ([1]; in vivo, 1 mg/kg/day) of the same compound?
Answer: no clinical signs noted

Question: And the Clinical signs ([1]; in vivo, 5 mg/kg/day)?
Answer: lethargy, increased/irregular respiration and increased heart rate

Question: And the “Anti-tumor activity relative to Compound 5 at 15 mg/Kg” value [2]?
Answer: comparable anti-tumor activity
